Test results taken from patent publication EP4825380A1, “BRAIN-MIGRATING TUMOR TREATMENT AGENT CONTAINING, AS ACTIVE INGREDIENT, N-(4-(4-AMINO-6-ETHYNYL-5-(QUINOLIN-3-YL)-7H-PYRROLO[2,3-D]PYRIMIDIN-7-YL) BICYCLO[2.2.1]HEPTAN-1-YL)-5-METHYLPYRAZINE-2-CARBOXAMIDE OR SALT THEREOF” (dated 2026).

Experiments:
[1] = system: NIH/3T3 cells expressing EGFR with Ex19del (Del E746-A750), T790M and C797S mutations (ex19del/T790M/C797S) (SEQ ID NO: 2); experiment: Efficacy evaluation in mouse subcutaneous transplantation model (Test Example 5); details: for mean tumor volume on Day 11: subcutaneous model, Day 1 until Day 10
[2] = system: NIH/3T3 cells expressing EGFR with Ex19del (Del E746-A750), T790M and C797S mutations (ex19del/T790M/C797S) (SEQ ID NO: 2) and luciferase; experiment: Efficacy evaluation in mouse brain transplantation model (Test Example 4)
[3] = Evaluation of brain penetration in mice after single oral administration (Test Example 2)
[4] = Brain protein binding, equilibrium dialysis (Test Example 1); details: mouse brain homogenate, 5000 nmol/g, dilution factor considered
[5] = Plasma protein binding, equilibrium dialysis (Test Example 1); details: mouse plasma, 5 µmol/L, equilibrium dialysis (RED device), 8 hours
P-gp and BCRP = experiment: Transcellular transport test in Caco-2 cells for P-gp and BCRP substrate properties (Test Example 7); details: for Papp Apical to basal: mean ± standard deviation (n = 3)
[6] = Brain penetration (Kp) at 0.5 hours after oral administration (Test Example 3); details: 0.5 hours after oral administration at a dose of 40 mg/kg

With `C=CC(=O)Nc1cc(Nc2nccc(-c3cn(C)c4ccccc34)n2)c(OC)cc1N(C)CCN(C)C` the “mean tumor volume relative to the mean tumor volume of the control group” value ([1]; Day 11, oral 25 mg/kg/day) was 87.2% and the “mean tumor volume on Day 11” value ([1]; oral 25 mg/kg/day) was 972.9 ± 82.3 mm^3.

In the case of `C#Cc1c(-c2cnc3ccccc3c2)c2c(N)ncnc2n1C12CCC(NC(=O)c3cnc(C)cn3)(CC1)C2`, the median survival time ([2]; intracranial model, oral 80 mg/kg/day from Day 8 until Day 56 (control 24.0 days)) is reported as 56.5 days, the “level of luminescence on Day 21” value ([2]; intracranial tumor, oral 80 mg/kg/day from Day 8) is reported as 1.648 × 10^6 ± 8.929 × 10^5 p/s and the “AUC0-24 Brain” value ([3]; single oral dose 20 mg/kg) is reported as 11900 ng·h/g. For the same compound, the “AUC0-24 Plasma” value ([3]; single oral dose 20 mg/kg) was 37.3 µg·h/mL, the “AUC0-24 Brain” value ([3]; single oral dose 40 mg/kg) was 52800 ng·h/g and the “AUC0-24 Plasma” value ([3]; single oral dose 40 mg/kg) was 104 µg·h/mL. The “AUC0-24 Brain” value ([3]; single oral dose 80 mg/kg) was 134000 ng·h/g, the “AUC0-24 Plasma” value ([3]; single oral dose 80 mg/kg) was 194 µg·h/mL and the “mean tumor volume on Day 11” value ([1]; oral 10 mg/kg/day) was 378.5 ± 19.6 mm^3. The “mean tumor volume on Day 11” value ([1]; oral 20 mg/kg/day) was 155.1 ± 22.9 mm^3, the “mean tumor volume on Day 11” value ([1]; oral 40 mg/kg/day) was 69.7 ± 7.5 mm^3 and the “mean tumor volume on Day 11” value ([1]; oral 80 mg/kg/day) was 34.1 ± 3.9 mm^3. The “brain protein unbound rate” value [4] was 0.0017, the “plasma protein unbound rate” value [5] was 0.0008 and the “Papp Apical to basal” value (P-gp and BCRP; 0.01 µmol/L) was 1.73 ± 0.17 × 10^-6 cm/sec. For the same compound, the “Papp Apical to basal” value (P-gp and BCRP; 0.1 µmol/L) was 2.38 ± 0.26 × 10^-6 cm/sec, the “Papp Apical to basal” value (P-gp and BCRP; 1 µmol/L) was 3.63 ± 0.35 × 10^-6 cm/sec and the “Papp Apical to basal” value (P-gp and BCRP; 3 µmol/L) was 5.56 ± 0.52 × 10^-6 cm/sec. The “substrate for P-gp or BCRP” value (P-gp and BCRP; judged from Papp ratio less than 2 at 0.01 to 3 µmol/L) was “not a substrate for P-gp or BCRP” and the Kp [6] was 0.832.

With `C#Cc1cccc(Nc2ncnc3cc(OCCOC)c(OCCOC)cc23)c1` the “mean tumor volume on Day 11” value ([1]; oral 80 mg/kg/day) was 810.8 ± 47.1 mm^3.

With `C#Cc1c(-c2cnc3ccccc3c2)c2c(N)ncnc2n1C12CCC(NC(=O)c3cncnc3)(CC1)C2` the “Concentration Brain” value [6] was 137 ng/g, the “Concentration Plasma” value [6] was 6340 ng/mL and the Kp [6] was 0.0214.
